scFv variants of Ab-14 (heavy chain) against a SARS-CoV-2 spike peptide

From the AlphaSeq antibody data of Li et al. 2023 (doi:10.1038/s41467-023-39022-2), copy in the FLAb collection.

All variants were tested on one target, the spike HR2 peptide PDVDLGDISGINAS (SARS-CoV-2).

Parent scFv Ab-14: VH joined to VL by a 15-residue (Gly4Ser)3 linker. Changes lie in the heavy chain CDRs alone.
VH: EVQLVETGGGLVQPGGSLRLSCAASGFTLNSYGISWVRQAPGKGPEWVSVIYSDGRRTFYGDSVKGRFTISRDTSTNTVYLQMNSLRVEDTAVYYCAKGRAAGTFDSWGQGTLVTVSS
VL: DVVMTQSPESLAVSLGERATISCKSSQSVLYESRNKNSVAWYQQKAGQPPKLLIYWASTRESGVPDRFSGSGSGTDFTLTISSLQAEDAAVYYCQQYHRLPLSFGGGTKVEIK

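Phage display of a naive human antibody library on the peptide gave the parent. Designed CDR sequences, proposed from the first random library and measured here. Several design methods are mixed in this list. The scFvs were displayed on barcoded MATa yeast, the peptide on MATalpha yeast. The frequency of each diploid, read from paired DNA barcodes, reflects how well the two displayed proteins bind. Read counts were normalised to the haploid input and turned into Kd by a linear fit to BCL2-family pairs of known affinity, for each replicate. There are six technical replicates.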

The parent's heavy chain CDRs are GFTLNSYGIS, VIYSDGRRTFYGDSVK, GRAAGTFDS; each variant's own CDRs replace them letter for letter.
Scale: log10 of Kd in nM, estimated from mating counts; low values are strong binders.
A mean of the replicates is given; it leaves out those without a signal.
Where no diploid with the target was found in any replicate, the entry reads "nd": below detection, most likely a poor binder, though not proof of it.
Entries are sorted by rising average, undetected variants last.
The authors' rule: three or more of the six replicates give a measured affinity, fewer mean a poor binder.
Background: pairings of all heavy chain designs with three empty control strains gave a value in 1% of cases (median 2.08, 5th percentile 0.84). Values in that range, when seen in few replicates, are hard to tell from nonspecific mating. Also given: how often the same scFv was detected with the empty control strains.
The range of this assay differs from that of the first round, and the authors advise against merging the two.
Of ten entries with the parent sequence, four were seen in most replicates (averages 0.34 to 2.37), three in one and three in none, so single entries are noisy.

CDR-H1	CDR-H2	CDR-H3	mean log10 Kd (nM)	seen in	empty controls
GFGLNEYGIS	VIYSDGRRTFYTDSVK	GRTAGTFDS	-1.00	5 of 6	0 of 18
GFGLNEYGIS	VIYSDGRRTFYADSVK	GRAAGTFDK	-0.75	6 of 6	0 of 18
GFDLNEYGIS	VIYADGRRTAYADNVK	GETAGTFDL	-0.65	6 of 6	0 of 18
GFDLNEYGIS	VIYADGSRTAYTDSVK	GNVAGTFDQ	-0.58	6 of 6	0 of 18
GFDLDEYGIS	VIYADGMRTAYADSVK	GNQAGTFDT	-0.51	6 of 6	0 of 18
GFNLDEYGIS	VIYADGRRTFYQDSVK	GEVAGTFDS	-0.40	6 of 6	0 of 18
GFDLNEYGIS	VIYADGMRTAYSDSVK	GENAGTFDM	-0.39	6 of 6	0 of 18
GFGLDEYGIS	VIYADGRRTFYADSVK	GEAAGTFDI	-0.31	6 of 6	2 of 18
GFDLEDYGIS	VIYADGMRTAYSDSVK	GEVAGTFDL	-0.29	6 of 6	0 of 18
GFELNEYGIS	VIYSDGRRTFYGDSVK	GREAGTFDT	-0.26	6 of 6	0 of 18
GFDLNEYGIS	VIYADGVRSFYADSVK	GQNAGTFDV	-0.26	6 of 6	0 of 18
GFDLDEYGIS	VIYADGMRTAYSDSVK	GGVAGTFDV	-0.17	6 of 6	0 of 18
GFDLNEYGIS	VIYADGLRTSYDDSVK	GQTAGTFDQ	-0.01	6 of 6	0 of 18
GFDLNEYGIS	VIYADGMRTAYADSVK	GEVAGTFDE	0.10	6 of 6	0 of 18
GFALDSYGIS	VIYSDGRRTFYSDSVK	GRAAGTFDS	0.10	6 of 6	0 of 18
GFSLNSYGIS	VIYSDGRRTFYGDSVK	GEVAGTFDS	0.11	6 of 6	1 of 18
GFSLNSYGIS	VIYSDGRRTFYGDSVK	GRVAGTFDK	0.19	6 of 6	0 of 18
GNTLNSYGIS	VIYADGRRTFYSDSVK	GRAAGTFDS	0.24	6 of 6	0 of 18
GFDLNSYGIS	VIYSDGRRTFYQDSVK	GRTAGTFDY	0.25	6 of 6	0 of 18
GFTLNSYGIS	VIYSDGQRTFYGDSVK	GRVAGTFDK	0.45	5 of 6	0 of 18
GFDLNEYGIS	VIYADGVRTAYANSVK	GENAGTFDV	0.82	6 of 6	1 of 18
LFSLNSYGIS	VIYSDGRRTFYADSVK	GRTAGTFDS	0.99	6 of 6	0 of 18
GFSLNSYGIS	VIYSDGRRTFYGDQVK	GNAAGTFDS	1.02	4 of 6	0 of 18
GFGLNSYGIS	VIYSDGRRTFYTDSVK	GQAAGTFDS	1.25	6 of 6	1 of 18
GFWLNEYGIS	VIYSDGRRTFYHDSVK	GRAAGTFDE	1.49	2 of 6	0 of 18
GFTLNEYGIS	VIYADGRRTFYGDSVK	GRAAATFDS	1.66	2 of 6	0 of 18
GFVLNSYGIS	VIYSDGRRTFYGDQVK	GRTAGTFDS	1.73	2 of 6	1 of 18
GFDLNEYGIS	VIYADGHRTQYSNNVK	GGQAGIGLS	2.01	1 of 6	0 of 18
GFTLNSYGIS	VIYSDGCRTFYTDSVK	GNAAGTFDS	2.01	5 of 6	2 of 18
GFTLNSYGIS	VIYSDGRRTFYGDSVK	GRSSGTFDS	2.11	1 of 6	1 of 18
GFQLNSYGIS	VIYSDGRRTFYGDSVK	GQAAGTFDD	2.30	3 of 6	0 of 18
GFHLNSYGIS	VIYSDGRRTFYGDSVK	GQTAGTFDD	2.38	4 of 6	0 of 18
GFTLNEYGIS	VIYSDGRRTFYTDSVK	GRFAFQFDS	2.70	1 of 6	0 of 18
GFTLNSYGIS	VIYSDGRRTSYGDSVK	GRAAGTFDQ	3.15	2 of 6	0 of 18
GFDLNEYGIS	VIYADGIRTAYSDSVK	GGNAGFFDQ	nd	0 of 6	1 of 18
GFTLNSYGIS	VIYSDGRRTFYSDSEK	GRAGGTFDS	nd	0 of 6	0 of 18
GFSLNSYGIS	VIYSDGRRTFYGDSVK	GRAAGTDDS	nd	0 of 6	0 of 18
GFTLNEYGIS	VIYSDGQRTFYSDSVK	GRAAGFFDS	nd	0 of 6	0 of 18
GFTLNSYGIS	VIYSDGRRTFYGDSVK	GRQAGTYDS	nd	0 of 6	0 of 18
GFDIEEMGIS	VIYADGIRQAYKNDVK	GTNVGRFAV	nd	0 of 6	0 of 18
GFTLNSYGIS	VIYSDGMRTFYSDSVK	GREAGTFFS	nd	0 of 6	0 of 18
GFNLDEYGIS	VIYADGTRTSYQPNVK	GVTGGHDVT	nd	0 of 6	1 of 18
GFTINSYGIS	VIYSDGRRTFYGDSVK	GRAALTFDS	nd	0 of 6	0 of 18
GFDLNEYGIS	VIYADGRRTFYQDSVK	GTAAGTFDQ	nd	0 of 6	0 of 18
GFTLNSYGIS	VIYADGRRTFYGDSVK	GRYAGTDKS	nd	0 of 6	0 of 18
GFDLNSYGIS	VIYSDGRRTFYGDSVK	GRAAMWFNS	nd	0 of 6	0 of 18
GFTLNSYGIS	VIYSDGRRTFYSDSVK	GRAAVTFDN	nd	0 of 6	0 of 18
GFTLNSYGIS	VIYSDGRRTFYGDSVK	GRAAGTVDS	nd	0 of 6	0 of 18
GFRLNSYGIS	VIYSDGRRTFYADSVK	GQLAGTFDS	nd	0 of 6	0 of 18
GFEIQDYGIS	VIYADGLRTSYSNKFK	GIIAGTFES	nd	0 of 6	0 of 18
GFTLNSYGIS	VIYSDGRRTFYGDSVK	GRIAGTFNS	nd	0 of 6	0 of 18
GEDLQEYGIS	VIYADGFRQSYAEKVK	GQHGGYLVK	nd	0 of 6	1 of 18
GFNLDEYGIS	VIYADGVRNFYSNSVK	GYGGIFMEL	nd	0 of 6	0 of 18
KFSLNSYGIS	VIYSDGKRTFYGDSVK	GRQAGTFDS	nd	0 of 6	0 of 18
GFTLNSYGIS	VIYFDGRRTFYMDSVK	GRAAGTFDS	nd	0 of 6	0 of 18
GFTLNSYGIS	VIYSDGRRTFYGDSVK	GVAIGTFDS	nd	0 of 6	0 of 18
GEDLLEYGIS	VIYADGSRVAYTNAVK	GNLAGAFDL	nd	0 of 6	0 of 18
GFTLTEYGIS	VIGSSGRRTFLTDFVK	GRFAGTFDS	nd	0 of 6	0 of 18

The first 4 variants above that were never detected:

CDR-H1	CDR-H2	CDR-H3	mean log10 Kd (nM)	seen in	empty controls
GFDLNEYGIS	VIYADGIRTAYSDSVK	GGNAGFFDQ	nd	0 of 6	1 of 18
GFTLNSYGIS	VIYSDGRRTFYSDSEK	GRAGGTFDS	nd	0 of 6	0 of 18
GFSLNSYGIS	VIYSDGRRTFYGDSVK	GRAAGTDDS	nd	0 of 6	0 of 18
GFTLNEYGIS	VIYSDGQRTFYSDSVK	GRAAGFFDS	nd	0 of 6	0 of 18